Counter-ions that a name gives are not always drawn.
What was measured:
[1] = system: ZIKV-induced cell death in SNB-19 cells; assay: ATP cell viability assay for ZIKV-induced cell death, SNB-19 cells; assay type: cell-based, human; details: ZIKV-infected SNB-19 cells
[2] = system: ZIKV-induced cell death in hNPCs; assay: ATP cell viability assay for ZIKV-induced cell death, hNPCs; assay type: cell-based, human; details: ZIKV-infected hNPCs
[3] = system: ZIKV-induced cell death in human astrocytes; assay: ATP cell viability assay for ZIKV-induced cell death, human astrocytes; assay type: cell-based; details: ZIKV-infected human astrocytes

COc1cc2nc(N3CCN(C(=O)C4CCCO4)CC3)nc(N)c2cc1OC (stereo not drawn) [Terazosin hydrochloride]
0.0%: Cell viability (efficacy, %) SNB-19 [1] | Cell viability (efficacy, %) NPCs [2] | Cell viability (efficacy, %) Astrocyte [3]

Reference: patent US10940188B2, “Compounds and methods for treatment and prevention of Flavivirus infection” (priority 2016, dated 2021)
